# Compound activity from PubChem.
# miR-21 FLuc: miR-21 reporter, rising signal; HeLa miR-21 FLuc reporter, luciferase, 48 h; Potency, µM (titrated, usually from 38.3 µM), without a hit: top-dose reporter change, positive = more light; AID 2288; 340,000 tested, under 10 active; active = well fitted rising curve with a large enough effect; inconclusive = small, poorly fitted or top-dose-only effect; inactive = no such curve, though single readings can be large or run the other way;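 further: % of control where 0% means no effect; miR-21 action dims this reporter so a rising signal means less miR-21 action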
#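 Using DMEM plus 10% FBS, HeLa miR-21-FLuc cells are incubated with test compounds (final up to about 40uM) for 48 hours; firefly luciferase signal is then imaged following reagent-mediated lysis.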
# Mito fusion act: inhibitors of mitochondrial division or activators of mitochondrial fusion; AID 485298; Potency, µM (titrated, usually from 46.1 µM), for inactives: at the highest dose growth rescue (activation), actives largely listed as activators; 320,000 tested, 0.23% active; S. cerevisiae fusion-defective mutant growth rescue, CellTiterGlo 48 h; also: potency is read from the fitted curve at half-maximal effect; % of control where 0% means no effect; nearly all actives have a fitted effect of over 45% in size
#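 Growth-rescue viability read-out: after 48 h at the non-permissive 37C in glycerol/ethanol YPEG, yeast mitochondrial fusion mutants are measured by CellTiterGlo luminescence; compounds (23 nl pinned per well) restoring growth score as division inhibitors or fusion activators.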
# A549 tox: A549 cytotoxicity, counter-screen for Nrf2 inhibitors; A549 ARE-Fluc cells, CellTiter-Fluor viability, 18-24 h; 390,000 tested, 0.16% active; Potency, µM (series often up to 46 µM), inactives show top-dose activity change, negative = cytotoxicity, hits mostly inhibitors; AID 504648; also: potency is read from the fitted curve at half-maximal effect; % is scaled to controls: 0 for no effect and ±100 for the full control effect
#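 A549 ARE-Fluc cells in 5% FBS OPTI-MEM, 5000 cells/well, rested 2 h then exposed to compounds in concentration-response for 18-24 h at 37 °C. Viability by CellTiter-Fluor fluorescence (Ex 405/Em 525) after 30 min; luciferase luminescence (BugLite, 15 min, RT) read afterwards.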
# Nrf2 inh: blocks Nrf2 signaling. A549 ARE-Fluc reporter, luciferase luminescence, 18-24 h. Potency, µM (titrated, usually from 46 µM), for inactives: top-dose activity change, negative = inhibition, hits mostly inhibitors. 360,000 tested, 2.1% active. AID 504444; also: potency is read from the fitted curve at half-maximal effect; % is scaled to controls: 0 for no effect and ±100 for the full control effect; nearly all actives have a fitted effect of over 60% in size
#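 Cells were seeded and rested 2 h, then exposed to compounds for 18-24 h. CellTiter-Fluor was read first as a viability measure. BugLite was added 15 min before the final luminescent read of ARE-luciferase activity in A549 cells.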
# GRP78 ERSR act: induces the endoplasmic reticulum stress response in human glioma cells; U87-MG GRP78 promoter luciferase reporter, 16 h; Potency, µM, inactives show at the highest dose activation, actives largely listed as activators; 420,000 tested, 0.02% active; also: potency is read from the fitted curve at half-maximal effect; series mostly up to about 76 µM; % of control where 0% means no effect; nearly all actives have a fitted effect of over 35% in size
#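 ERSR induction read as luciferase luminescence (Bright-Glo, 10 min at room temperature) in stably transfected human U87-MG glioma cells exposed to compounds for 16 h, using GRP78 as sensor.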
# Nrf2 ARE act: activators of Nrf2 (ARE) signaling. AREc32 ARE-luciferase reporter (MCF7-derived line), luminescence, 24 h. Potency, µM (series often up to 46.1 µM), inactives show at the highest dose activation, most hits filed as activators. 410,000 tested, 0.31% active. AID 624171; also: potency is read from the fitted curve at half-maximal effect; % of control where 0% means no effect; nearly all actives have a fitted effect of over 65% in size
#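 For detection, Steady-Glo was added and plates sat 30 min at RT; before that, AREc32_Fluc cells grown overnight in OPTI-MEM/5% FBS had been treated with 23 nL compound for 24 hr at 37 deg C.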
# * hit, by the source's call; ? = inconclusive; / = no result given. This is a sample that favours compounds with a hit; in the whole collection about 2.3% have one here. Unless noted, calls follow the shape of the dose curve; as a rule, active = well fitted curve in the direction sought with a large enough effect; inconclusive = small, poorly fitted or top-dose-only effect, or another doubt; inactive = no such curve, though single readings can be large; an effect the other way counts as inactive or inconclusive.
no. | compound | miR-21 FLuc | Mito fusion act | A549 tox
1 | O=[N+]([O-])c1cccc(S(=O)(=O)Nc2nc3ccccc3nc2Nc2cccc(S(=O)(=O)N3CCCCC3)c2)c1 | -2.1% | -10.7% | ?
2 | COc1ccc(OC)c(/C=C/C(=O)Nc2cccc(S(=O)(=O)N3CCCC3)c2)c1 | -12.6% | 1.2% | 16.1%
3 | COc1ccc(CCC(=O)Nc2cccc(S(=O)(=O)N3CCCCCC3)c2)cc1 | / | 2.2% | -10.2%
4 | COC(=O)c1ccc(NC(=O)Cn2cnc3c2c(=O)n(C)c(=O)n3C)cc1 | -4.4% | / | 6.9%
5 | CCN1CCCC1CNC(=O)CN(C)S(=O)(=O)c1ccc(Cl)cc1 (stereo not drawn) | -2.6% | 3.5% | -17.4%
6 | COc1ccc(COC(=O)N/N=C2/C[C@@H](O)[C@@H](O)[C@@H]3[C@@H]4C(=O)N(Cc5ccccc5)C(=O)[C@H]4CC[C@@H]23)cc1 | / | / | /
7 | Cc1cccc(NC(=O)CSCC(=O)Nc2cccc(S(=O)(=O)N3CCCCCC3)c2)c1 | / | -7.1% | -6.6%
8 | Cc1cc(OCC(=O)Nc2cccc(S(=O)(=O)N3CCCC3)c2)ccc1Cl | / | 11.5% | -16.4%

no. | Nrf2 inh | GRP78 ERSR act | Nrf2 ARE act
1 | ? | -5.1% | 18.8%
2 | 13µM* | -5.3% | -0.9%
3 | 20.6µM* | 0.9% | 0.3%
4 | -11.0% | -2.1% | 3.6%
5 | -4.8% | -5.7% | 0.3%
6 | / | -2.7% | /
7 | ? | -3.6% | 2.2%
8 | 16.4µM* | -3.6% | 2.6%

# (cont.)
no. | compound | miR-21 FLuc | Mito fusion act | A549 tox
9 | CCS(=O)c1ccccc1C(=O)OCC(=O)Nc1cccc(S(=O)(=O)N2CCCCC2)c1 (stereo not drawn) | / | 2.1% | -11.7%
10 | Cc1cccc(C)c1OCC(=O)Nc1cccc(S(=O)(=O)N2CCCC2)c1 | / | -5.0% | -13.1%
11 | Cc1ccc(NC(=O)CSCC(=O)Nc2cccc(S(=O)(=O)N3CCCCCC3)c2)cc1 | / | -4.3% | -26.9%
12 | COc1cc(/C=C2\SC(=Nc3ccccc3)N(Cc3ccco3)C2=O)ccc1OC(C)C(=O)O (stereo not drawn) | 10.7% | -2.5% | ?
13 | COCCN1C(=O)/C(=C/c2ccc(OCc3ccc(C(=O)O)cc3)c(OC)c2)SC1=Nc1ccccc1 | -4.2% | ? | 20.6µM*
14 | O=C1CC(c2cccc(O)c2)c2c(nc(SCc3ccccc3F)[nH]c2=O)N1 (stereo not drawn) | -15.3% | / | -5.3%
15 | CC(OC(=O)c1cccc(NS(C)(=O)=O)c1)C(=O)Nc1ccc2c(c1)OCO2 (stereo not drawn) | / | 2.9% | -5.9%
16 | O=C(Nc1ccc(Cn2cccn2)cc1)c1ccc(COc2ccc(Br)cc2)cc1 | -2.5% | -2.4% | -0.3%

no. | Nrf2 inh | GRP78 ERSR act | Nrf2 ARE act
9 | 20.6µM* | -3.5% | 0.4%
10 | 14.6µM* | -3.5% | 0.0%
11 | 13µM* | -1.6% | 3.5%
12 | -28.5% | ? | 2.9%
13 | ? | -5.3% | -0.5%
14 | 19.8% | -0.6% | 0.0%
15 | 23.1µM* | -3.0% | -0.2%
16 | 5.9% | -4.5% | 0.0%

# Continued:
no. | compound | miR-21 FLuc | Mito fusion act | A549 tox
17 | O=C(Nc1ccn(Cc2ccccc2F)n1)c1ccc(COc2ccc(Br)cc2)cc1 | 12.2% | 2.0% | ?
18 | Cc1ccc2[nH]c(C(=O)N3CCN(C=O)CC3)cc2c1 | -8.9% | 0.8% | -1.0%
19 | CCOC(=O)N1CCN(C(=O)C(=O)NN)CC1 | 2.7% | -2.3% | 2.5%
20 | CCCCN(CCCC)CC(O)c1cc(Cl)cc2c1-c1ccc(Cl)cc1C2=Cc1ccc(Cl)cc1 (stereo not drawn) | / | / | /
21 | CCc1cc(CNC(=O)c2ccc3nc(Cc4ccc(OC)c(OC)c4)oc3c2)on1 | 19.8% | 6.2% | -8.7%
22 | COc1ccc(C(=O)NCC(=O)N2CCc3ccccc3C2)cc1 | -13.1% | -7.1% | -8.3%
23 | CCOC(=O)c1cc(-c2ccc(F)cc2)nc2c1c(=O)[nH]c(=O)n2Cc1ccccc1 | -4.7% | 8.2% | -2.2%
24 | Cc1nn(-c2ccccc2)c(C)c1/C=N\N1CCN(c2ccc(Cl)cc2)CC1 | 0.1% | 10.2% | -1.7%

no. | Nrf2 inh | GRP78 ERSR act | Nrf2 ARE act
17 | 6.51µM* | -1.9% | -0.7%
18 | 1.5% | -3.0% | -0.7%
19 | -5.8% | -1.9% | 2.3%
20 | / | -4.7% | /
21 | 20.6µM* | 5.3% | 2.2%
22 | 5.4% | -1.3% | 0.5%
23 | -5.5% | -2.3% | 0.3%
24 | / | -7.3% | -0.9%

# Results in sequence from the list.
# Nrf2 ARE act for entries 8 to 16, in order: 2.6%, 0.4%, 0.0%, 3.5%, 2.9%, -0.5%, 0.0%, -0.2%, 0.0%
# Nrf2 inh for entries 8 to 16, in order: 16.4µM*, 20.6µM*, 14.6µM*, 13µM*, -28.5%, ?, 19.8%, 23.1µM*, 5.9%

# Further compounds
no. | compound | miR-21 FLuc | Mito fusion act | A549 tox
25 | Cc1c(C(=O)Nc2ccc(F)cc2)nnn1-c1cccc(C(F)(F)F)c1 | -9.2% | 12.1% | -15.0%
26 | COc1ccc(C(=O)NC2CCCc3c2cnn3-c2ccc(C)c(C)c2)c(OC)c1OC (stereo not drawn) | 7.7% | -5.4% | -10.5%
27 | CCn1nc(C)cc1C(=O)NC1CCCc2c1cnn2-c1ccc(C)c(C)c1 (stereo not drawn) | 23.4% | -2.6% | -13.3%
28 | COc1cccc(C(=O)NC2CCCc3c2cnn3-c2ccc(C)c(C)c2)c1OC (stereo not drawn) | 23.7% | -2.8% | -3.7%
29 | Cc1cc(C(=O)NC2CCCc3c2cnn3-c2ccc(C)c(C)c2)no1 (stereo not drawn) | 3.5% | 8.9% | -18.9%
30 | CC(C)(C)c1ccc(-n2ncc3c2CCCC3NC(=O)C2=NNC(=O)CC2)cc1 (stereo not drawn) | 12.4% | 8.8% | -19.1%
31 | CC(=O)NC1CCCc2c1cnn2-c1ccc(C(C)(C)C)cc1 (stereo not drawn) | -5.2% | 3.8% | -8.3%
32 | Cc1ccccc1N1CCN(S(=O)(=O)c2nnc(NC(=O)c3ccccc3)s2)CC1 | -7.9% | / | -0.6%

no. | Nrf2 inh | GRP78 ERSR act | Nrf2 ARE act
25 | 20.6µM* | 1.9% | 2.9%
26 | 13µM* | -0.9% | 0.2%
27 | 11.6µM* | -1.0% | -0.3%
28 | ? | -4.6% | 0.2%
29 | 10.3µM* | 6.3% | 0.0%
30 | 8.2µM* | -4.6% | 0.8%
31 | -24.3% | -4.1% | 0.1%
32 | ? | -2.7% | 0.1%

# Among those listed so far, two contain a tert-butyl group.
no. | compound | miR-21 FLuc | Mito fusion act | A549 tox
30 | CC(C)(C)c1ccc(-n2ncc3c2CCCC3NC(=O)C2=NNC(=O)CC2)cc1 (stereo not drawn) | 12.4% | 8.8% | -19.1%
31 | CC(=O)NC1CCCc2c1cnn2-c1ccc(C(C)(C)C)cc1 (stereo not drawn) | -5.2% | 3.8% | -8.3%

no. | Nrf2 inh | GRP78 ERSR act | Nrf2 ARE act
30 | 8.2µM* | -4.6% | 0.8%
31 | -24.3% | -4.1% | 0.1%

# The listing continues.
no. | compound | miR-21 FLuc | Mito fusion act | A549 tox
33 | COc1cc(C(=O)NC2CCCc3c2cnn3-c2ccccc2F)cc(OC)c1OC (stereo not drawn) | 18.9% | -2.8% | -13.8%
34 | Cc1cc2nc(-c3ccc[nH]c3=O)n(Cc3ccc(F)cc3)c2cc1C | -15.7% | -8.1% | -1.5%
35 | Cc1cc2nc(-c3ccc[nH]c3=O)[nH]c2cc1C | ? | -55.6% | 5.8%
36 | Cc1ccc(S(=O)(=O)NCCC(=O)Nc2cc(S(=O)(=O)N(C)C)ccc2C)cc1C | 0.4% | -1.7% | 0.5%
37 | CCOC(=O)c1nc(Nc2cccc(C)c2)c2ccccc2n1 | 16.9% | 7.0% | -14.5%
38 | O=C1C=C(NCCc2cc(Br)c(O)c(Br)c2)C(=O)c2ncccc21 | / | / | 23.1µM*
39 | O=C1C(=O)c2ncccc2-c2cccnc21 | / | / | /
40 | CCOc1ccccc1N1C(=O)c2cccnc2C1=O | -4.6% | 0.8% | 11.9%
41 | NCCc1nnc(SCc2c(Cl)cccc2Cl)o1 | 1.4% | -0.9% | -3.7%

no. | Nrf2 inh | GRP78 ERSR act | Nrf2 ARE act
33 | 6.51µM* | 9.5% | 1.8%
34 | -2.3% | 2.1% | 0.7%
35 | 11.6µM* | -1.8% | -1.1%
36 | 7.31µM* | -5.8% | -0.6%
37 | ? | -2.3% | -0.5%
38 | ? | -6.1% | ?
39 | / | -6.3% | /
40 | 6.9% | -6.5% | -0.1%
41 | -5.6% | -0.8% | 0.1%
